Laboratory results: publication PMC6030506 (Biochemistry, 2018)

Target: T1, HDAC8 (Homo sapiens, UniProt Q9BY41)
T1 sequence (Q9BY41 1-377): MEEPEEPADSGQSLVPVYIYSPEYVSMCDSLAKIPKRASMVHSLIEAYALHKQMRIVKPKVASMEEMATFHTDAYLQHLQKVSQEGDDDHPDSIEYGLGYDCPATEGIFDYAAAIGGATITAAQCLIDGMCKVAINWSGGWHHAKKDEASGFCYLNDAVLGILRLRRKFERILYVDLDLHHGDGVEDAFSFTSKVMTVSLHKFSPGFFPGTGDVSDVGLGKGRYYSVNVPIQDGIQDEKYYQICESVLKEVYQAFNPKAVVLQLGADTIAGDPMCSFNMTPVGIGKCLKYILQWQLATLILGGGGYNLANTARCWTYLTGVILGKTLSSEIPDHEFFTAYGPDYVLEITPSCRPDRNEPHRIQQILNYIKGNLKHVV
Experiment: ITC
Type: binding
Conditions: […] HEPES pH […] KCl, […] glycerol, […] TCEP

O=C(CCCCCCNC(=O)c1cnc(N(c2ccccc2)c2ccccc2)nc1)NO [Ricolinostat]
Kd: the aliphatic hydroxamate inhibitor Ricolinostat
